Earlier results in US4952693A, “Oxazolo-pyrimidine derivatives” (Warner-Lambert Company, priority 1987, dated 1990).

Test system: PNP
Settings: literature report

Structure (SMILES): Nc1nc2nc(N)[nH]c2c(=O)[nH]1 [8-Aminoguanine]
- PNP-activity (in words): PNP-activity
